One may read the Ki as a measure of affinity in units of concentration, obtained from inhibition or displacement.

Chains of the proteins cited; added tags and fusions are not shown.
UniProt P32245, whole entry: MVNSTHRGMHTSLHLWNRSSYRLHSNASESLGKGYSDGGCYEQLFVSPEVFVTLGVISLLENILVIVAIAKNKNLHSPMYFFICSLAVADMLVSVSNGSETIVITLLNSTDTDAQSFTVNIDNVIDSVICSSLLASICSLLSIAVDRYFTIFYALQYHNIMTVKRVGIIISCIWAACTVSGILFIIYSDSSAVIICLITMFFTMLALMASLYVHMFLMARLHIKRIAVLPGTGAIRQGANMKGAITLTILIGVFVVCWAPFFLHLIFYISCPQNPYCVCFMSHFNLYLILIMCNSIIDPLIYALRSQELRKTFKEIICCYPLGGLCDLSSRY

The values that follow come from patent US20120178701A1 (PALATIN TECHNOLOGIES, published 2012).

In this experiment the target is T1, human recombinant melanocortin-4 receptor (human, UniProt P32245 1-332).
T1 construct: whole, on cells; cAMP assays used the whole cells; also called hMC4-R; MC4-R
The experiment can be described thus: competitive inhibition of [I125]-NDP-α-MSH, hMC4-R HEK-293 membranes. As for the experimental part:
A competitive inhibition binding assay is performed using membrane homogenates prepared from HEK-293 cells that express recombinant hMC4-R, hMC3-R, or hMC5-R, and from B-16 mouse melanoma cells (containing endogenous MC1-R). In some instances, HEK-293 cells that express recombinant hMC1-R were employed. In the examples that follow, all MC3-R, MC4-R and MC5-R values are for human recombinant receptors. […] Membrane homogenates were incubated with 0.2 nM (for hMC4-R) 0.4 nM (for MC3-R and MC5-R) or 0.1 nM (for mouse B16 MC1-R or hMC1-R) [I¹²⁵]-NDP-α-MSH (Perkin Elmer) and increasing concentrations of test peptides of the present invention in buffer containing 25 mM HEPES buffer (pH 7.5) with 100 mM NaCl, 2 mM CaCl₂, 2 mM MgCl₂, 0.3 mM 1,10-phenanthroline, and 0.2% bovine serum albumin. […] Filters were dried and counted in a gamma counter for bound radioactivity. […] Maximal specific binding (100%) was defined as the difference in radioactivity (cpm) bound to cell membranes in the absence and presence of 1 μM NDP-α-MSH. […] Ki values for test peptides of the present invention were determined using Graph-Pad Prism® curve-fitting software.
9.1 Peptides of the following structures were synthesized by the general methods described above, and averaged MC4-R Ki values for peptides were determined as indicated. […] Ki values marked “ND” were not determined.

B1: Ac-Arg-cyclo(Asp-Ser-D-Phe-Lys-Trp-Lys)-NH2 (peptide)
peptide: RDSFKWK
modifications: N-acetyl; D-Phe 4; side-chain lactam Asp2-Lys7; C-terminal amide
notes: also called peptide No. 4
As for B1, the inhibition constant Ki came to 4.29 µM.
